Values of other authors in paper PMC3554599, “Hydrophobic analogues of rhodamine B and rhodamine 101: potent fluorescent probes of mitochondria in living C. elegans” (Beilstein Journal of Organic Chemistry, 2012).

Test system: C. elegans
Details: stated for comparison, no reference given; cited from earlier work

For sodium azide, the “concentration that rapidly causes paralysis and eventually death” value is given as 25000 to 50000 µM.
